Results reported in patent publication US20230416677A1, “MEDIUM COMPOSITION FOR DERMAL PAPILLA CELL GROWTH, CONTAINING ROTENONE AND ALBUMIN AS ACTIVE INGREDIENTS” (XCELL THERAPEUTICS INC., priority 2020, published 2023).

Test system: Human dermal papilla cells (hDPC)
Experiment: Passage culture of dermal papilla cells in serum-free medium with different albumin concentrations (density, doubling time, accumulated cell number, viability)
Assay type: cell-based
Description: hDPCs were prepared in the same manner as in Example 1. They were treated with different concentrations (0.1, 0.5, 1 g/L) of albumin (Richcore, India) in a serum-free medium containing 1% Antibiotic and Antimycotic Hyclone sv30079.91, and then put in a 25T flask. The cells were inoculated at a concentration of 1.52×10^5/flask. After culturing in a 5% carbon dioxide incubator at 37° C., photographs of the cells were taken before passage to confirm the density of dermal papilla cells according to the concentration of albumin (Richcore).
On the other hand, each time the density of the cells proliferated to 90% or more, the cells were passaged. During the passage, the cells were detached from each flask by the use of TrypLE Express, and then the cells were centrifuged. The supernatant was discarded to leave only the cells in the lower layer. The cells were well resuspended by adding a condition-based medium, and then the cell numbers were measured using NC250™ (Chemometec, Denmark). Using the measured cell number and culture time, the doubling time and accumulated cell number per day were calculated using the following Equation.
A=previous passage, B=current passage
Doubling time=ln(2)×(Δtime between B and A)/ln(count B/count A) [Equation 1]
Accumulated cell number (ACN)=ACN of A×cell count of B/seeding number [Equation 2]
Each time the density of the cells proliferated to 90% or more, the cells were passaged. During the passage, the cells were detached from each flask by the use of TrypLE Express, and then the cells were centrifuged. The supernatant was discarded to leave only the cells in the lower layer. The cells were well resuspended by adding a condition-based medium, and then while progressing the subculture to 10 passages, the cell viability was measured using NC250™ (Chemometec, Denmark) at each passage.

albumin: plasma protein (Richcore, India) added to serum-free medium; from human plasma, serum or recombinant
cell density of dermal papilla cells (albumin 0.1 g/L versus 1 g/L, serum-free medium, FIG. 2a): higher cell density | doubling time (albumin 0.1 g/L versus 1 g/L, serum-free medium, FIG. 2b): lower doubling time | cell viability (albumin 0.1 g/L versus 1 g/L, subculture to 10 passages, FIG. 2d): higher cell viability | accumulated cell numbers over time (low versus high albumin concentration condition, FIG. 2c): higher
